According to ChEMBL document CHEMBL5260854, “Discovery of Novel TRPM8 Blockers Suitable for the Treatment of Somatic and Ocular Painful Conditions: A Journey through pKa and LogD Modulation” (J Med Chem, 2021):
pIC50: −log10 of the molar value.

Amino acid sequences for entries named in this document (tags omitted).
UniProt Q7Z2W7, whole entry: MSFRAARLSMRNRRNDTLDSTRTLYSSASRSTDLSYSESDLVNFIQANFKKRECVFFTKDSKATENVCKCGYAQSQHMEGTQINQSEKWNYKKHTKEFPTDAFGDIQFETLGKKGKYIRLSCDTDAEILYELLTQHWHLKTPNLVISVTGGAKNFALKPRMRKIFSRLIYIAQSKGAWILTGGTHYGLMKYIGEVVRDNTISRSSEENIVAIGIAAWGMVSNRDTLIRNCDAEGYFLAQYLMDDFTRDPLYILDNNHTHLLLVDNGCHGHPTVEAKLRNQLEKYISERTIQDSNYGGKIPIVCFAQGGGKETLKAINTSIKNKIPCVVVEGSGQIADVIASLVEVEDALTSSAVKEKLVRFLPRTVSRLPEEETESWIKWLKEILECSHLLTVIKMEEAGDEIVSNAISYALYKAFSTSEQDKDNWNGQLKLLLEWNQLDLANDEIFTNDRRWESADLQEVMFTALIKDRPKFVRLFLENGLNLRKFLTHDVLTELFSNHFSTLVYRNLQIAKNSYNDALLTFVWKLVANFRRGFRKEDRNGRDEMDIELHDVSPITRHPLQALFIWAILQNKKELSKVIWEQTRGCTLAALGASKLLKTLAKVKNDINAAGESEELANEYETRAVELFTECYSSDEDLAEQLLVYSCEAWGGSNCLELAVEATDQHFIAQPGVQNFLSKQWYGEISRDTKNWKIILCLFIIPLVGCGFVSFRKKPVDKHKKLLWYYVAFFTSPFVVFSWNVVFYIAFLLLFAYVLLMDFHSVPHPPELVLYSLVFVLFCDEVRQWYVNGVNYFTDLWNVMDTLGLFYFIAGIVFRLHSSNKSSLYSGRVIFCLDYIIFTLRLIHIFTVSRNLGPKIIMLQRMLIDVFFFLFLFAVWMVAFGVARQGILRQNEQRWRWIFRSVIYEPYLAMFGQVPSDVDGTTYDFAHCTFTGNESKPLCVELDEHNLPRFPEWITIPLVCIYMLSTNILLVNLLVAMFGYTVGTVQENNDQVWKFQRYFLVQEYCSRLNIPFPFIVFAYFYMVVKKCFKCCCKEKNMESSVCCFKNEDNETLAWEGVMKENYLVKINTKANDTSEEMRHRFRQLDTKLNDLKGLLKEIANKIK
UniProt Q7Z2W7, whole entry I746A: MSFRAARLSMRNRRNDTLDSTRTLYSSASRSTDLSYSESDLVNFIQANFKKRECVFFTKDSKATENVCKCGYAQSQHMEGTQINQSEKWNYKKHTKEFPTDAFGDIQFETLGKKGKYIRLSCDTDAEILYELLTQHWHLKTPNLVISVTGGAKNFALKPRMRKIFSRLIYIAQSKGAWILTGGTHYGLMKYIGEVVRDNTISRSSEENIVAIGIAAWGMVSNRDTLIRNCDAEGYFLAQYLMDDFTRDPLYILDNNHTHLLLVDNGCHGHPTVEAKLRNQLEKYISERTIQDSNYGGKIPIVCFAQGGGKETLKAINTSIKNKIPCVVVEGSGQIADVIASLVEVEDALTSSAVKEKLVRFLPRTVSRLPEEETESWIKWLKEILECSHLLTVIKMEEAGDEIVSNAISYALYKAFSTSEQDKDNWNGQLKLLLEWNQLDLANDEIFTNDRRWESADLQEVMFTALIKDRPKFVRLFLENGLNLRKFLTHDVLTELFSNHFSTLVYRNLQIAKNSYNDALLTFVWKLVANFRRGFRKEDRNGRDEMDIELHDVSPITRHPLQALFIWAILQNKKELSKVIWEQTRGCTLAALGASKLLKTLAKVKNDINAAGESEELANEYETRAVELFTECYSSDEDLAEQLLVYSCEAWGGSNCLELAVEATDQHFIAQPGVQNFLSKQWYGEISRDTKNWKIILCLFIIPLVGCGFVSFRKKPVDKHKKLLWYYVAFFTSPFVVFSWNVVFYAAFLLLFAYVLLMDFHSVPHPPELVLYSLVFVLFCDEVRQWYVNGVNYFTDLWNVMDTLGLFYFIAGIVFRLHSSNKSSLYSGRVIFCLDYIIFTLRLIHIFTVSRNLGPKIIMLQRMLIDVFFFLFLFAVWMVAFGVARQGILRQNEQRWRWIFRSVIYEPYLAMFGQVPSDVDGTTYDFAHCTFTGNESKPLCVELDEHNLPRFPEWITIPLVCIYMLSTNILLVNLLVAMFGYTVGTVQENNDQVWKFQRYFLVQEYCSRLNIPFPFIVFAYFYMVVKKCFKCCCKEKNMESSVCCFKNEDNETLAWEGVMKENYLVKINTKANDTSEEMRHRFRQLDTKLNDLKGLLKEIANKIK
UniProt Q7Z2W7, whole entry N799A: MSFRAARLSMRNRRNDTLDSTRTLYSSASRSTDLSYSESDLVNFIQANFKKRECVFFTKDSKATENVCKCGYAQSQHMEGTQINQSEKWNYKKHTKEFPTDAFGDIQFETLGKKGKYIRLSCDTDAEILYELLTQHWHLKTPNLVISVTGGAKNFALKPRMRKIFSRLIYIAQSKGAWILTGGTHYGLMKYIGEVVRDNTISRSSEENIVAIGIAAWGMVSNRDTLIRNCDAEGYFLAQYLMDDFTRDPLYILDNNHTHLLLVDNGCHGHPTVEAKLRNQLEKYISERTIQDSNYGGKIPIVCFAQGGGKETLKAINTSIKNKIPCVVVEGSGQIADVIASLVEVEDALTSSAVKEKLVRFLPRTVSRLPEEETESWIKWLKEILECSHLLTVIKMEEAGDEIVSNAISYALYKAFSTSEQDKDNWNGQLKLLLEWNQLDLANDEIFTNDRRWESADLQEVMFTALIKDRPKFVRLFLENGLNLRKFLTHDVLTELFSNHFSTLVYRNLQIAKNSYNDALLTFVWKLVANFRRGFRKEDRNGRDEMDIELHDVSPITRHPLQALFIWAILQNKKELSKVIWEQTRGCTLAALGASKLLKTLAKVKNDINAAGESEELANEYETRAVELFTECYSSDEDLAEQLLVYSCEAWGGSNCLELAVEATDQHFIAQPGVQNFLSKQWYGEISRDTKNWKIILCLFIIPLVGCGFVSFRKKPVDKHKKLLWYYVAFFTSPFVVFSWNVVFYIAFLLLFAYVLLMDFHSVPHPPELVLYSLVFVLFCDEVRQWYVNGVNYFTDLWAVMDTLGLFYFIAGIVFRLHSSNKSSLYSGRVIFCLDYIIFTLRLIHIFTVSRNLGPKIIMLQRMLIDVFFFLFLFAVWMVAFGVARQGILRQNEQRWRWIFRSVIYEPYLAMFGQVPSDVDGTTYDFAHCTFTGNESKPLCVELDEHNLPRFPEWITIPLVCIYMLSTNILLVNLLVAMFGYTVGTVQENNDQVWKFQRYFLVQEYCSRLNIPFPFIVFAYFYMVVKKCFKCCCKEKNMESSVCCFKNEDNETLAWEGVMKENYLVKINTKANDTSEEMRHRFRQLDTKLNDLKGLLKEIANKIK
UniProt Q7Z2W7, whole entry D802A: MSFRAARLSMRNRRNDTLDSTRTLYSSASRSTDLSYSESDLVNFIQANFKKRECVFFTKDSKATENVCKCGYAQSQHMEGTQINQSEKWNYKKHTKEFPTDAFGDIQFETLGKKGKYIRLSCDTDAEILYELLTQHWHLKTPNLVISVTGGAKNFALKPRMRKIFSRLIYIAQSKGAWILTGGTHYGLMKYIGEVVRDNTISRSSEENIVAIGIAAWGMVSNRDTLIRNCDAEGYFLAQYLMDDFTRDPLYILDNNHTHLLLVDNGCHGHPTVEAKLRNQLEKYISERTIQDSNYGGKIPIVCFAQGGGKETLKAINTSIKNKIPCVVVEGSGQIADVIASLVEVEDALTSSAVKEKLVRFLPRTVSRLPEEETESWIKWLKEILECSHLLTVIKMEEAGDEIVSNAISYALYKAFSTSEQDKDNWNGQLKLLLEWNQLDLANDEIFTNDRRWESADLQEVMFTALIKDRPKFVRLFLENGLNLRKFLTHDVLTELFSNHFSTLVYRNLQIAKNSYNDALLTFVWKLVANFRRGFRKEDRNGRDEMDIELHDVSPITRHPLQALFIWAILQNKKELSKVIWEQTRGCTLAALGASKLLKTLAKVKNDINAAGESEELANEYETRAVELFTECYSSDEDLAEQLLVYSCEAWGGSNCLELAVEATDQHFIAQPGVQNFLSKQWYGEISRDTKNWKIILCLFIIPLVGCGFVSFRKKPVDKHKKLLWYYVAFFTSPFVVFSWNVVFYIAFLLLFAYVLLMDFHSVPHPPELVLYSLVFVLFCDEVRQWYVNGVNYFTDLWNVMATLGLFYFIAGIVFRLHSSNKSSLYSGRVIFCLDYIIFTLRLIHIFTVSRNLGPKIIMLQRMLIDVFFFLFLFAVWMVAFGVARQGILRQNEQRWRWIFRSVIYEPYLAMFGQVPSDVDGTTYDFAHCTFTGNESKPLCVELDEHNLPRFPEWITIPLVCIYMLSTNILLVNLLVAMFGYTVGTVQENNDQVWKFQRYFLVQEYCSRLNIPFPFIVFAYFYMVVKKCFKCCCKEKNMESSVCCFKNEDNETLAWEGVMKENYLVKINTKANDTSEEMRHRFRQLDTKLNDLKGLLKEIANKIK

Key:
Type in all cases: cell-based
[1] = target: T1, Transient receptor potential cation channel subfamily M member 8 (Homo sapiens, UniProt Q7Z2W7); experiment: Inhibition of human TRPM8 expressed in HEK293 cells assessed as reduction in icilin induced Ca2+ efflux preincubated for 5 mins followed by icilin addition and measured for 3 mins by FLIPR assay
[2] = target: T1, Transient receptor potential cation channel subfamily M member 8; experiment: Inhibition of human TRPM8 expressed in HEK293 cells assessed as reduction in ethyl 4-methoxy-2-phenylthiazole-5-carboxylate induced Ca2+ efflux preincubated for 5 mins followed by ethyl 4-methoxy-2-phenylthiazole-5-carboxylate addition and measured for 3 mins by FLIPR assay
[3] = target: T1, Transient receptor potential cation channel subfamily M member 8; experiment: Inhibition of wild type human TRPM8 expressed in HEK293 cells assessed as reduction in icilin induced Ca2+ efflux
[4] = target: T1, Transient receptor potential cation channel subfamily M member 8; experiment: Inhibition of human TRPM8 expressed in HEK293 cells assessed as decrease in outward currents by patch clamp electrophysiology method
[5] = target: T2, Transient receptor potential cation channel subfamily M member 8 (Homo sapiens, UniProt Q7Z2W7, I746A); experiment: Inhibition of human TRPM8 I746A mutant expressed in HEK293 cells assessed as reduction in icilin induced Ca2+ efflux
[6] = target: Transient receptor potential cation channel subfamily M member 8 (Homo sapiens, UniProt Q7Z2W7, N799A); experiment: Inhibition of human TRPM8 N799A mutant expressed in HEK293 cells assessed as reduction in ethyl 4-methoxy-2-phenylthiazole-5-carboxylate induced Ca2+ efflux
[7] = target: Transient receptor potential cation channel subfamily M member 8 (Homo sapiens, UniProt Q7Z2W7, D802A); experiment: Inhibition of human TRPM8 D802A mutant expressed in HEK293 cells assessed as reduction in ethyl 4-methoxy-2-phenylthiazole-5-carboxylate induced Ca2+ efflux
[8] = target: T2, Transient receptor potential cation channel subfamily M member 8; experiment: Inhibition of human TRPM8 I746A mutant expressed in HEK293 cells assessed as reduction in ethyl 4-methoxy-2-phenylthiazole-5-carboxylate induced Ca2+ efflux
[9] = target: T1, Transient receptor potential cation channel subfamily M member 8; experiment: Inhibition of wild type human TRPM8 expressed in HEK293 cells assessed as reduction in ethyl 4-methoxy-2-phenylthiazole-5-carboxylate induced Ca2+ efflux
[10] = target: T1, Transient receptor potential cation channel subfamily M member 8; experiment: Inhibition of human TRPM8 expressed in HEK293 cells assessed as reduction in cold stimulated Ca2+ efflux preincubated for 5 mins followed by cold stimulation and measured for 3 mins

pIC50 [1]: 7.62
pIC50 [2]: 7.74
pIC50 [3]: 7.12
pIC50 [4]: 7.44
pIC50 [5]: 7.22
pIC50 [6]: 6.60
pIC50 [7]: < 4.52
pIC50 [8]: 7.30
pIC50 [9]: 7.12
pIC50 [10]: 7.67
SMILES: CCn1nnc(-c2sc(-c3cccc(F)c3)nc2O)n1
